Source: article PMC7750258 (Progress in neuro-psychopharmacology & biological psychiatry, 2020)
Several values for one entry are separate records, joined by “and”; a condition that tells them apart may be missing. Equal values may be shown once. Read-outs that look alike come from different tables or passages of the source.

Sequences of proteins named here, by UniProt entry; tags and fusion partners are left off.
UniProt P20272, whole entry: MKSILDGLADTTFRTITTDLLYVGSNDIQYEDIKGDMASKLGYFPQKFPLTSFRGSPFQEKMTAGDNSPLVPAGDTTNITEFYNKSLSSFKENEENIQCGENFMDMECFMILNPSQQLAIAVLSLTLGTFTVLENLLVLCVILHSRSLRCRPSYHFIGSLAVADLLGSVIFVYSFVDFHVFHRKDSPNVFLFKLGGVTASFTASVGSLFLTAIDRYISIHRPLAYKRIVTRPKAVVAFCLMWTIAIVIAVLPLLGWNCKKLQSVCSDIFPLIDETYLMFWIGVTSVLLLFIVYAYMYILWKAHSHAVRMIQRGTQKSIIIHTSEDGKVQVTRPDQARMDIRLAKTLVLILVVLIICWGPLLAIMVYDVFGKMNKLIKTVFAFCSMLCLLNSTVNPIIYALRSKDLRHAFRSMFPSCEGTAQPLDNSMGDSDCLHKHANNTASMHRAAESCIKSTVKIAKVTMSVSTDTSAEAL
UniProt P47746, whole entry: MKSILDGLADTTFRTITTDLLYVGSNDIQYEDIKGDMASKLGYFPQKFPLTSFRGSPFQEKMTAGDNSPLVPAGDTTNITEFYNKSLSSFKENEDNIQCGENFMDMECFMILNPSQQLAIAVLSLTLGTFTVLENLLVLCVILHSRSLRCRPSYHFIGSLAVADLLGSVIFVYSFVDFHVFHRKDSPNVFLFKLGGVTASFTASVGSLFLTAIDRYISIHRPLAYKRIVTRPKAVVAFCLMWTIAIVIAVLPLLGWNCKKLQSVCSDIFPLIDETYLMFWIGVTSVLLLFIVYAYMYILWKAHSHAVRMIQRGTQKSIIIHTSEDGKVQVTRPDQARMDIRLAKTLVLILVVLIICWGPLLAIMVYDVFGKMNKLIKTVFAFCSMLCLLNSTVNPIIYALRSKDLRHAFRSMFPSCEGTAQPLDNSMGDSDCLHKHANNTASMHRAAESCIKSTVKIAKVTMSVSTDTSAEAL

Columns and labels:
[1] = ref Huestis, 2007; Schou et al., 1977; cited from earlier work
[2] = target: T1, CB1 receptor (Rattus norvegicus, UniProt P20272); test: Agonist-stimulated [35S]GTPγS binding in rat cerebellar membranes; type: biochemical, Sprague-Dawley rats; details: for Efficacy (Emax ± SEM) % / EC50: cerebellum; for Efficacy (Emax ± SEM) %: percent stimulation over basal [35S]GTPγS binding; for EC50: read-out: Potency (EC50 ± SEM) nM, [35S]GTPγS
[3] = target: T2, CB1 receptor (Mus musculus, UniProt P47746); test: [3H]CP55,940 displacement binding in mouse cerebellar membranes; parameters: species or system ICR mice; details: for Ki: read-out: CB1 Binding Affinity (Ki in nM), cerebellum, N = 4 / value
[4] = target: T1, CB1 receptor; test: [3H]CP55,940 displacement binding in rat cerebellar membranes; parameters: species or system Sprague-Dawley rats
[5] = target: T2, CB1 receptor; test: Agonist-stimulated [35S]GTPγS binding in mouse cerebellar membranes; type: biochemical, ICR mice; details: for EC50: read-out: Potency (EC50 ± SEM) nM, [35S]GTPγS

11-OH-Δ^9-tetrahydrocannabinol [11-OH-THC]
blood-brain barrier penetration [1]: readily crosses the blood-brain barrier | Efficacy (Emax ± SEM) % ([2]; female rats): 51.4 (5.74) % | Efficacy (Emax ± SEM) % ([2]; male rats): 51.7 (5.42) % | efficacy compared with THC in [35S]GTPγS assay ([2]; rat cerebellum): slightly greater efficacy than THC | functional character in [35S]GTPγS assay ([2]; rat cerebellum, both sexes): partial agonists | EC50 ([2]; female rats): 109 nM | EC50 ([2]; male rats): 69.8 nM | greater affinity than THC ([3]; mouse cerebellum, both sexes): ~ 1.5 fold and 1.3–1.5 fold | Ki ([3]; female mice): 28.5 nM | Ki ([3]; male mice): 27.3 nM | greater affinity than THC ([4]; rat cerebellum, both sexes): ~ 1.5 fold and 1.4–1.6 fold | Ki ([4]; read-out: CB1 Binding Affinity (Ki in nM), male rats, cerebellum, N = 4 / value): 28 nM | Efficacy (Emax ± SEM) % ([5]; male mice, cerebellum, percent stimulation over basal [35S]GTPγS binding): 52 (5.94) % | functional character in [35S]GTPγS assay ([5]; mouse cerebellum, both sexes): partial agonists | EC50 ([5]; female mice, cerebellum): 81.4 nM | EC50 ([5]; male mice, cerebellum): 85.3 nM
